# Experimental data as given in ChEMBL document CHEMBL5543100 (Eur J Med Chem, 2024).
# Calls of active or inactive are those of the source. The rule behind the calls is not given here.
# Legend:
# OS-RC-2 [1] = test: Induction of apoptosis in human OS-RC-2 cells assessed as increase in apoptotic morphological changes at 100 to 500 uM; format: functional, cell-based; conditions: dose 100-500 µM
# 786-0 [2] = test: Antiproliferative activity against human 786-0 cells assessed as inhibition of cell growth at 500 uM incubated for 48 hrs by CCK-8 assay; format: functional, cell-based
# OS-RC-2 [3] = test: Inhibition of glycolysis in human OS-RC-2 cells assessed as reduction in glucose consumption at 100 to 500 uM; format: functional, cell-based; conditions: dose 100-500 µM
# OS-RC-2 [4] = test: Induction of apoptosis in human OS-RC-2 cells assessed as increase in apoptotic cells at 100 to 500 uM by Annexin V-FITC/PI staining based flow cytometry analysis; format: functional, cell-based; conditions: dose 100-500 µM
# 786-0 [5] = test: Inhibition of glycolysis in human 786-0 cells assessed as reduction in glucose consumption at 100 to 500 uM; format: functional, cell-based; conditions: dose 100-500 µM
# OS-RC-2 [6] = test: Antiproliferative activity against human OS-RC-2 cells assessed as inhibition of cell growth at 500 uM incubated for 48 hrs by CCK-8 assay; format: functional, cell-based
# 786-0 [7] = test: Induction of cell cycle arrest in human 786-0 cells assessed as suppression of cell cycle related protein expression at 100 to 500 uM by Western blot analysis; format: functional, cell-based; conditions: dose 100-500 µM
# 786-0 [8] = test: Induction of apoptosis in human 786-0 cells assessed as increase in apoptotic morphological changes at 100 to 500 uM; format: functional, cell-based; conditions: dose 100-500 µM
# 786-0 [9] = test: Induction of apoptosis in human 786-0 cells assessed as increase in apoptotic cells at 100 to 500 uM by Annexin V-FITC/PI staining based flow cytometry analysis; format: functional, cell-based; conditions: dose 100-500 µM
# OS-RC-2 [10] = test: Inhibition of glycolysis in human OS-RC-2 cells assessed as reduction in lactate production at 100 to 500 uM; format: functional, cell-based; conditions: dose 100-500 µM
# OS-RC-2 [11] = test: Antiproliferative activity against human OS-RC-2 cells assessed as inhibition of cell growth at 10 to 100 uM incubated for 48 hrs by CCK-8 assay; format: functional, cell-based; conditions: dose 10-100 µM
# OS-RC-2 [12] = test: Induction of cell cycle arrest in human OS-RC-2 cells assessed as suppression of cell cycle related protein expression at 100 to 500 uM by Western blot analysis; format: functional, cell-based; conditions: dose 100-500 µM
# 786-0 [13] = test: Inhibition of glycolysis in human 786-0 cells assessed as reduction in lactate production at 100 to 500 uM; format: functional, cell-based; conditions: dose 100-500 µM
# 786-0 [14] = test: Antiproliferative activity against human 786-0 cells assessed as inhibition of cell growth at 10 to 100 uM incubated for 48 hrs by CCK-8 assay; format: functional, cell-based; conditions: dose 10-100 µM
# [15] = Toxicity in male immunodeficient BALB/c nude mouse xenografted with human OS-RC-2 cells assessed as histopathological changes in liver at 20 mg/kg/day, ip administered for 16 days by H and E staining based analysis; format: organism-based; conditions: in vivo, 384 h, time 16 day
# [16] = Toxicity in male immunodeficient BALB/c nude mouse xenografted with human OS-RC-2 cells assessed as histopathological changes in lung at 20 mg/kg/day, ip administered for 16 days by H and E staining based analysis; format: organism-based; conditions: in vivo, 384 h, time 16 day
# [17] = Toxicity in male immunodeficient BALB/c nude mouse xenografted with human OS-RC-2 cells assessed as histopathological changes in spleen at 20 mg/kg/day, ip administered for 16 days by H and E staining based analysis; format: organism-based; conditions: in vivo, 384 h, time 16 day
# [18] = Toxicity in male immunodeficient BALB/c nude mouse xenografted with human OS-RC-2 cells assessed as histopathological changes in kidney at 20 mg/kg/day, ip administered for 16 days by H and E staining based analysis; format: organism-based; conditions: in vivo, 384 h, time 16 day
# OS-RC-2 [19] = test: Antitumor activity against human OS-RC-2 cells xenografted in male immunodeficient BALB/c nude mouse assessed as tumor volume at 20 mg/kg/day, ip administered for 16 days and measured every other day (reference value: 741 +/- 294.89 mm3); format: functional; conditions: time 16 day
# [20] = Toxicity in male immunodeficient BALB/c nude mouse xenografted with human OS-RC-2 cells assessed as histopathological changes in heart at 20 mg/kg/day, ip administered for 16 days by H and E staining based analysis; format: organism-based; conditions: in vivo, 384 h, time 16 day
SMILES,Activity (OS-RC-2 [1]),Activity (786-0 [2]),inhibition (OS-RC-2 [3]),Activity (OS-RC-2 [4]),inhibition (786-0 [5]),Activity (OS-RC-2 [6]),Activity (786-0 [7]),Activity (786-0 [8]),Activity (786-0 [9]),inhibition (OS-RC-2 [10]),Activity (OS-RC-2 [11]),Activity (OS-RC-2 [12]),inhibition (786-0 [13]),Activity (786-0 [14]),Activity [15],Activity [16],Activity [17],Activity [18],Activity (OS-RC-2 [19]) [mm3],Activity [20]
COc1cc2nc(N3CCN(C(=O)C4CCCO4)CC3)nc(N)c2cc1OC (stereo not given),inactive,Active,Active,inactive,Active,Active,Active,inactive,inactive,Active,inactive,Active,Active,inactive,–,–,–,–,–,–
CCCNc1ccc2ncc(-c3ccc4[nH]ncc4c3)n2n1,–,–,–,–,–,–,–,–,–,–,–,–,–,–,Non-Toxic,Non-Toxic,Non-Toxic,Non-Toxic,280.89,Non-Toxic
